pIC50: −log10 of the molar value. Where “and” joins values, the source holds several entries; their conditions need not be identical. Equal values may be shown once.
How the values were obtained:
TRPM8 = TRPM8 (Rattus norvegicus, UniProt Q8R455); test: Ca2+ microfluorography (Fluo-4 NW), menthol-induced Ca2+ signal in HEK-CR1-TRPM8 cells; assay type: cell-based; settings: for % Block TRPM8 50 µM: 50 µM compound; for % Block TRPM8 50 µM / pIC50: agonist 100 µM menthol, HEK-CR1-TRPM8 cells; for pIC50: read-out: IC50 TRPM8
TRPV1 = TRPV1 (Rattus norvegicus, UniProt O35433); test: Ca2+ microfluorography (Fluo-4 NW), capsaicin-induced Ca2+ signal in SH-SY5Y-TRPV1 cells; assay type: cell-based; settings: 50 µM compound, agonist 10 µM capsaicin
Kinetic solubility = assay type: physicochemical

Amino acid sequences for entries named in this document (tags omitted).
UniProt Q8R455, whole entry: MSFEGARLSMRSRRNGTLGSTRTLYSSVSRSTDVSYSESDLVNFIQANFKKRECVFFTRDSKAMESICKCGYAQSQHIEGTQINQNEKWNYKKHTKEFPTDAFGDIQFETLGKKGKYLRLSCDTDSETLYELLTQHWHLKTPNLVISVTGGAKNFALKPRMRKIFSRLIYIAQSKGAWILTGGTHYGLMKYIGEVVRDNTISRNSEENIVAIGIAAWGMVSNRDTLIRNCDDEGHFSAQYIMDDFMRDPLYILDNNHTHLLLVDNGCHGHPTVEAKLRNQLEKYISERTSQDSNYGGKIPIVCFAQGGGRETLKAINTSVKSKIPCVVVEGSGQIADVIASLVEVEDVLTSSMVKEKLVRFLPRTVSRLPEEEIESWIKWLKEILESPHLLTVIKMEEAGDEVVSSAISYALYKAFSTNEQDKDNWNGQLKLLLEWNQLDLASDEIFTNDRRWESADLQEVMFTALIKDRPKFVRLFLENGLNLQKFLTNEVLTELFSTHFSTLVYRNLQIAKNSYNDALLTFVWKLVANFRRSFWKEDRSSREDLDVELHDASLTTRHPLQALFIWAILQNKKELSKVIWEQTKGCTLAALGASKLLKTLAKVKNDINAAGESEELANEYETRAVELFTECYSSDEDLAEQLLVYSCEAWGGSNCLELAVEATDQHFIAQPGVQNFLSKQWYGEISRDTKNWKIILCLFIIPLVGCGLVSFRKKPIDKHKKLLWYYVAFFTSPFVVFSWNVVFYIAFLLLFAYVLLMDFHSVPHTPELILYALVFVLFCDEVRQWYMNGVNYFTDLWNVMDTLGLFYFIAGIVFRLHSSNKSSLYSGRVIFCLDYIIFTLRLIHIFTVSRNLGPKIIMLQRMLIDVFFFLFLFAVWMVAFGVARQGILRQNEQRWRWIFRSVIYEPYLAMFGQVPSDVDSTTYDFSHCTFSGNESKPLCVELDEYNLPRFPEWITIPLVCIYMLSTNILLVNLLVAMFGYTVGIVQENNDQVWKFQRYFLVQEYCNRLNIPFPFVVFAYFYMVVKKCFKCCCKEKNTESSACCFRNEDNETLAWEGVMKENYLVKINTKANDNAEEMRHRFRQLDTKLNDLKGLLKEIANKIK
UniProt O35433, whole entry: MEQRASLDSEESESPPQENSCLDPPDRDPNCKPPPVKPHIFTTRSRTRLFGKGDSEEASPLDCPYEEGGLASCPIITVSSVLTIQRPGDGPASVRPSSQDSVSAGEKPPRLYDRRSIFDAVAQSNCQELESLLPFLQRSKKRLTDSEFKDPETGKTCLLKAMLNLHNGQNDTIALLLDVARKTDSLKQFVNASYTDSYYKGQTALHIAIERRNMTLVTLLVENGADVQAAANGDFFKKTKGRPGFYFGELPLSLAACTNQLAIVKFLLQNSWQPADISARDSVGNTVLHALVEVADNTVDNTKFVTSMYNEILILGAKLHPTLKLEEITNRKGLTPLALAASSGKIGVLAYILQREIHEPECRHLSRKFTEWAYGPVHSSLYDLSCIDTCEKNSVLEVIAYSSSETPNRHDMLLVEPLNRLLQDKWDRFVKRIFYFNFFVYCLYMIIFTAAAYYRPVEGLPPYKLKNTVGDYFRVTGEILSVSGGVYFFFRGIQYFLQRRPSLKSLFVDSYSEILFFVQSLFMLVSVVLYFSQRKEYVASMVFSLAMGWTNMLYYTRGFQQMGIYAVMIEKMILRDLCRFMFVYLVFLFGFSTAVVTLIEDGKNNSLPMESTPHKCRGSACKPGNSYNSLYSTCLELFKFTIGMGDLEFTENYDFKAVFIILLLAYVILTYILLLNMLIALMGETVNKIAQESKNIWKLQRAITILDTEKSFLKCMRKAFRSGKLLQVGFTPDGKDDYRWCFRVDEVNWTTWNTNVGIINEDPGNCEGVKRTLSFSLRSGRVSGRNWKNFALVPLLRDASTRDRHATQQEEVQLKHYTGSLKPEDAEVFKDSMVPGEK

SMILES | % Block TRPM8 50 µM (TRPM8) [%] | pIC50 (TRPM8) | % Block TRPV1 50 µM (TRPV1) | TRPM8 blocking activity (in words) (TRPM8) | Kinetic solubility (Kinetic solubility; 1% DMSO) | Kinetic solubility (Kinetic solubility; 5% DMSO)
COC(=O)[C@H](Cc1ccccc1)NC(=O)[C@H](CCN1C(=O)C[C@]1(Cc1ccccc1)C(=O)N[C@@H](Cc1ccccc1)C(=O)OC)NC(=O)OC(C)(C)C | 99.3 ± 3.4 | 5.03 | 16.8 ± 10.4% | – | – | –
C[C@H]1C(=O)N(CC[C@H](NC(=O)OC(C)(C)C)C(=O)NCc2ccccc2)[C@@]1(Cc1ccccc1)C(=O)NCc1ccccc1 | 100 | 5.24 | 15.2 ± 11.8% | – | – | –
CC(C)(C)OC(=O)N[C@@H](CCN1C(=O)CC1(Cc1ccccc1)C(=O)NCc1ccncc1)C(=O)NCc1ccncc1 (stereo partly shown) | 39.3 ± 14.7 | 4.26 | 7.4 ± 9.5% | – | 86 M and 56 mg/L | 441 M and 291 mg/L
C[C@@H]1C(=O)N(CC[C@H](NC(=O)OC(C)(C)C)C(=O)NCc2ccccc2)[C@]1(Cc1ccccc1)C(=O)NCc1ccccc1 | 100 | 5.08 | 13.0 ± −9.0% | – | – | –
COC(=O)[C@H](Cc1ccccc1)NC(=O)[C@H](CCN1C(=O)C[C@@]1(Cc1ccccc1)C(=O)N[C@@H](Cc1ccccc1)C(=O)OC)NC(=O)OC(C)(C)C | 99.3 ± 7.7 | 5.08 | 12.4 ± 10.8% | – | – | –

More lines, in order of rising pIC50 (TRPM8), values ahead:

% Block TRPM8 50 µM (TRPM8) [%] | pIC50 (TRPM8) | % Block TRPV1 50 µM (TRPV1) | TRPM8 blocking activity (in words) (TRPM8) | SMILES | Kinetic solubility (Kinetic solubility; 1% DMSO) | Kinetic solubility (Kinetic solubility; 5% DMSO)
4.1 ± 16.9 | 2.74 | 27.2 + 32.7% | no activity | COC(=O)[C@H](CCCN1C(=O)CC1(C)C(=O)OC(C)(C)C)NC(=O)OCc1ccccc1 (stereo partly shown) | – | –
21.5 ± 20.5 | 3.12 | 22.2 ± 12.7% | almost inexistent | CN[C@@H](CCCN1C(=O)CC1(Cc1ccccc1)C(=O)OC(C)(C)C)C(=O)OC (stereo partly shown) | – | –
33.7 ± 11.7 | 4.12 | 10.3 ± 11.9% | – | COC(=O)[C@H](C)NC(=O)[C@H](CCN1C(=O)C[C@]1(Cc1ccccc1)C(=O)N[C@@H](C)C(=O)OC)NC(=O)OC(C)(C)C | – | –
88.9 ± 13.1 | 5.10 | 30.2 ± 8.9% | – | COC(=O)[C@H](CCCN1C(=O)CC1(Cc1ccccc1)C(=O)OC(C)(C)C)N(C)C(=O)OCc1ccccc1 (stereo partly shown) | – | –

Source: publication PMC5589751, “Synthesis, high-throughput screening and pharmacological characterization of β–lactam derivatives as TRPM8 antagonists” (Scientific Reports, 2017)
